# Source: patent US20240239769A1, “CO-CRYSTAL OF MELANOCORTIN RECEPTOR AGONIST COMPOUND AND VANILLIN AND METHOD FOR PREPARING SAME” (LG CHEM, LTD., priority 2021, published 2024)
# Description: Solubility indicates the result of measurement based on the final volume of water added to a sample when it is visually confirmed that the sample is completely dissolved by adding water to the sample. The solubility of the actual sample may be higher than the measured solubility. Solubility was measured based on the final volume of water added to a sample when it was visually confirmed that the sample was completely dissolved by adding water to the sample.
substance,measurement,value
"Co-Crystal of N-((3S,5S)-1-((3S,4R)-1-(tert-butyl)-4-(4-chlorophenyl)pyrrolidine-3-carbonyl)-5-(morpholine-4-carbonyl)pyrrolidin-3-yl)-N-((1s,4R)-4-methylcyclohexyl)isobutyramide and Vanillin [Example 2]",solubility,less than 1 mg/mL
